This is a selection: effects in other tests are not listed, and their absence says nothing.
Tests used:
[1] = tested on: LeARG1; experiment: Effect of various compounds on arginase activity, LeARG1; assay type: biochemical, Lycopersicon esculentum (tomato); settings: compound 2.0 mM, 25 mM L-arginine; % of control reaction
Experimental: (§1) Homogenates were centrifuged at 20,000×g for 10 min at 4° C., and the supernatants were used as the enzyme source. Recombinant LeARG enzyme was prepared as described above. Protein concentrations were determined as described above. Arginase activity was measured with a spectrophotometric assay for detection of urea (Alabadi et al., Plant Physiol. 112:1237-1244 (1996)), with minor modifications. The enzyme solution was activated with 1 mM MnCl2 at 37° C. for 60 min. […] Reactions were carried out at 37° C. for 20 min and stopped by the addition of 500 μl of 15% (v/v) perchloric acid. A 200-μl aliquot was mixed vigorously with 3 ml of acid mixture [9% (v/v) of phosphoric acid and 27% (v/v) of sulfuric acid] and 100 μl of 3% (w/v) α-isonitrosopropiophenone (Sigma) in 95% ethanol. This mixture was heated in a boiling water bath in the dark for 60 min and cooled for 10 min to room temperature. The OD540 was recorded on a Uvikon 933 spectrophotometer (Research Instruments, San Diego, Calif.). Substrate specificity tests were performed as described above with the exception that agmatine and other related compounds were added in place of L-arginine, to a final concentration of 250 mM. Substrates tested were obtained from Sigma. […]

[2] = tested on: LeARG2; experiment: Effect of various compounds on arginase activity, LeARG2; assay type: biochemical, Lycopersicon esculentum (tomato); settings: compound 2.0 mM, 25 mM L-arginine; % of control reaction
Experimental: as §1

Sodium nitroprusside
Relative activity (%) [1]: 102% | Relative activity (%) [2]: 105%
